From patent publication US20240285596A1, “SOLID DOSAGE FORMS AND DOSING REGIMENS COMPRISING (2R,3S,4S,5R)-4-[[3-(3,4-DIFLUORO-2-METHOXY-PHENYL)-4,5-DIMETHYL-5-(TRIFLUOROMETHYL) TETRAHYDROFURAN-2-CARBONYL]AMINO]PYRIDINE-2-CARBOXAMIDE” (VERTEX PHARMACEUTICALS INCORPORATED, priority 2021, published 2024)

Test system: subjects with pain following bunionectomy
Assay: Randomized, double-blind, placebo-controlled study of efficacy and safety in subjects with pain following bunionectomy
Conditions: Compound 1 high-dose group (100 mg first dose, then 50 mg q12 h); HB/APAP group (5 mg/325 mg q6 h)

## COc1c([C@H]2[C@H](C(=O)Nc3ccnc(C(N)=O)c3)O[C@@](C)(C(F)(F)F)[C@H]2C)ccc(F)c1F (single isomer, unassigned) [Compound 1]
  Incidence of adverse event headache: 8%
  Incidence of adverse event nausea: 8%
